Earlier results, collected in patent publication US6770674B1, “Mollusc repellent” (priority 1998, dated 2004).

Test system: Rat
Settings: oral; cited from earlier work

Copper nitrate
LD50 (Rat): 940 mg/kg
